Laboratory results published in PubChem BioAssay AID784 (The Scripps Research Institute Molecular Screening Center, 2007).
Only a part is listed here, and it is no random draw. Calls of active or inactive are those of the source. No stated cut-off is given here; in the data, active means activation above about 65%; inactive means the rest.

Amino acid sequences for entries named in this document (tags omitted).
UniProt P04062, whole entry L483P: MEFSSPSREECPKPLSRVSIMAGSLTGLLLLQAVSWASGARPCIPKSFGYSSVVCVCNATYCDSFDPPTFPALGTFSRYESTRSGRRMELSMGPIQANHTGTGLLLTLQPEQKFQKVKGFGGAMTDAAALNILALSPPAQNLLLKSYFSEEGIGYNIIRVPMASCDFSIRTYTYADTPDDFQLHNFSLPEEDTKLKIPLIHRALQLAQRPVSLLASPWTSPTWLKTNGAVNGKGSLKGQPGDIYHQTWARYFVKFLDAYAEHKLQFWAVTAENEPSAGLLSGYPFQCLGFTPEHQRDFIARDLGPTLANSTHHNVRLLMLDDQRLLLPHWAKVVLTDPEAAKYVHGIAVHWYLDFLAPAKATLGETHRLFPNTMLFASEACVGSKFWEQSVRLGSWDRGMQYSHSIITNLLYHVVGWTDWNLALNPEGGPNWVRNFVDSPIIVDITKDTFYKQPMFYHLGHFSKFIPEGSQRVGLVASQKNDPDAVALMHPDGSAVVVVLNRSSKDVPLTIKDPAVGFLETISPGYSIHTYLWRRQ

What follows are compounds tested against Lysosomal acid glucosylceramidase (Homo sapiens) (UniProt P04062) (assay: raising glucocerebrosidase activity, Gaucher cells – primary screen (AID 784;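 further: 0% = vehicle wells and 100% = positive control wells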)). Conditions: L444P Gaucher fibroblasts, 4-MU-glucoside fluorescence, 3 days; at 10 µM; hits give high values.

Structure (SMILES) | activation
O=C(OC1CN2CCC1CC2)C1c2ccccc2Oc2ccccc21 (stereo not drawn) | inactive: -25%
N/C(=N\O)c1c(N)no[n+]1[O-] | inactive: -8.94%
CCOc1ncccc1C(=O)NCC1(N2CCOCC2)CCCCC1 | inactive: -33.3%
